# Binding of CDR-mutated scFvs to a peptide of the spike HR2 region

All variants were tested on one target, the spike HR2 peptide PDVDLGDISGINAS (SARS-CoV-2).

Parent scFv Ab-14: VH joined to VL by the linker GGGGSGGGGSGGGGS. Changes lie in the light chain CDRs alone.
VH: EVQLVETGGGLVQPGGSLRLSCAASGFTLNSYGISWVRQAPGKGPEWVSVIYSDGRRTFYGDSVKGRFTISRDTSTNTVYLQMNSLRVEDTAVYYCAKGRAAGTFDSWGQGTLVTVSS
VL: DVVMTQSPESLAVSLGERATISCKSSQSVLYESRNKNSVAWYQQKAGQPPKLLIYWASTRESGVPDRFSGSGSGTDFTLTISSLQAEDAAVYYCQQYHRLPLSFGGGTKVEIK

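The library (AAYL50) carries one to three amino acid substitutions per variant, with no insertions or deletions. Affinity was read by AlphaSeq, a pooled yeast mating assay with surface-displayed partners. After mating in shaken culture at 30 °C for 16 h, diploids were selected and their barcode pairs sequenced. Each replicate has its own calibration line, from reference interactions of the BCL2 family. Each pool was mated in three replicate cultures.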

Substitutions are numbered in sequence along the VL above, starting at 1 (not Kabat).
Affinities are written as log10 Kd with Kd in nM; a lower number is a better binder.
The mean shown is taken over the replicates in which the pair was detected.
A pair that was not seen in that replicate is written "nd"; this usually means weak binding, but a binder can also be missed.
In this assay the parent's reference entry averaged 0.65; its copy inside this library read 1.68.
As a blank, each scFv also met three strains without target: over library AAYL50, 18% of these pairings were detected, typically at 4.19 and seldom below 2.99. For each scFv, signals with the empty controls are counted beside the result, with their mean in brackets.

changes,"log10 Kd, replicates","mean, log10 nM",empty controls
S26E/N35M,1.46 1.34 1.53,1.44,0 of 9
S26P/N35D/S58T,1.46 1.98 1.51,1.65,0 of 9
K24H/V29G,0.46 0.70 0.77,0.64,1 of 9 (3.09)
L30R/W56Y/Q96W,nd 1.61 1.92,1.76,0 of 9
H98K/P101K/S103F,2.26 2.23 2.27,2.26,1 of 9 (4.35)
E32G/N35R/Y97V,nd nd nd,nd,0 of 9
S26W/Q96M/Y97V,2.35 2.20 2.36,2.30,0 of 9
N37T/E61W/Q95N,nd nd nd,nd,3 of 9 (3.70)
S25A/Y31C/P101T,nd nd 4.33,4.33,0 of 9
S28N/Q96M/P101I,nd 2.43 nd,2.43,1 of 9 (3.90)
A40D/Q96C/L102G,nd nd nd,nd,1 of 9 (4.32)
S28E/V39A/Y97W,nd nd nd,nd,2 of 9 (3.65)
S58V/S62T/P101Y,1.22 1.36 1.48,1.35,0 of 9
S25F/S28F/S58K,2.68 2.33 2.50,2.50,2 of 9 (4.46)
K24P/S28T/S103H,nd nd nd,nd,0 of 9
W56C/Y97Q,nd nd nd,nd,0 of 9
V29S/L100F/L102H,nd nd nd,nd,0 of 9
S25I/V29R/Y97T,3.02 2.44 3.35,2.94,1 of 9 (4.43)
S25A/Q95S,2.15 1.74 2.09,1.99,0 of 9
R99F/L102Y/S103C,nd nd nd,nd,1 of 9 (2.88)
A40E/L100P/P101V,nd 3.46 5.57,4.51,5 of 9 (4.17)
E32H/L102K,nd nd nd,nd,5 of 9 (4.21)
Y31D/A57R/Q95F,nd nd nd,nd,0 of 9
K24S/N37R/Y97Q,nd nd nd,nd,0 of 9
Q95M/L102P,nd 4.07 5.51,4.79,1 of 9 (3.50)
L100Q,1.48 1.32 1.71,1.50,1 of 9 (5.11)
K24F/Q96T/L100S,4.84 5.62 3.78,4.74,5 of 9 (4.52)
R34W/K36W/A57V,nd nd 3.69,3.69,2 of 9 (4.28)
Q27S/R34E/L102W,0.55 1.09 0.95,0.87,3 of 9 (4.30)
L30S/A57C/L100H,nd nd nd,nd,0 of 9

Excerpt, the final 2 entries:

changes,"log10 Kd, replicates","mean, log10 nM",empty controls
Q27S/R34E/L102W,0.55 1.09 0.95,0.87,3 of 9 (4.30)
L30S/A57C/L100H,nd nd nd,nd,0 of 9

The measurements come from Engelhart et al. 2022 (doi:10.1038/s41597-022-01779-4) through the FLAb antibody collection.